# From patent EP4840863A1, “FLUORINE-CONTAINING PARTHENOLIDE DERIVATIVE, PREPARATION METHOD THEREFOR AND USE THEREOF” (dated 2026)
# “And” between values parts separate entries of the source, which are not always exact repeats. Equal values may be shown once.
# Legend:
# H520 = assay: Anticancer activity test (CCK-8), H520 cells; conditions: 72 h, Table 1-1
# Method: Cells in logarithmic growth phase were digested, centrifuged, and counted; the cell suspension was adjusted to a concentration of 1500-3500 cells/well, and 95 µL was seeded into each well of a 96-well plate.
# After continued overnight culture, drugs at different concentrations were added to the plate, with six replicate wells for each concentration. 10 µL of the drug was added to each well, followed by incubation for 72 h. Then, 10 µL of CCK-8 solution was added to each well (care should be taken to avoid generating bubbles in the wells, as they can affect the OD reading). After incubation in the incubator for 1-4 h, the OD value at 450 nm was measured using a microplate reader. The experiment to assess the effect of each drug on each cell line at different time points was repeated three times.
# Data were processed using EXCEL software to calculate the inhibition rate at different concentrations, and SPSS was used to fit the IC50 value. EXCEL was used to calculate the mean and standard deviation of the three IC50 values. Inhibition rate % = {1 - (OD value of drug well - OD value of blank well) / (OD value of control well - OD value of blank well) } * 100%. Table 1-1 Activity of Compounds in Inhibiting Cancer Cells
# [1] = Distribution of Compound 4 and released Compound 1 in tissues (brain, pancreas, rectum, liver, lung; LC/MS); conditions: for Concentrations in Lung / Concentrations of Compound 4 in Brain Tissue / Concentrations of Compound 4 in Liver / Concentrations of Compound 4 in Pancreatic Tissue / Concentrations of Compound 4 in the Rectum: iv (10 mg/kg) Compound 4
# Method: (1) Forty-eight healthy Bar b/c mice, each weighing approximately 20 g, were taken and divided into 3 groups. Blank control group (6 mice), oral gavage administration group (Compound 4 dose: 50 mg/kg, 21 mice), and tail vein injection administration group (Compound 4 dose: 10 mg/kg, 21 mice) (2) For the oral gavage group, blood samples were collected at 5 min, 15 min, 30 min, 1 h, 3 h, 8 h, and 24 h after administration. For the intravenous injection group, blood samples were collected at 2 min, 5 min, 15 min, 30 min, 1 h, 3 h, 8 h, and 24 h after administration. Blood was collected from mice via eyeball removal and placed in anticoagulant tubes containing sodium heparin. The samples were immediately centrifuged at 5000 rpm at low temperature (4°C) for 10 min to obtain plasma samples. The samples were stored in a -80°C freezer for analysis. Three mice were used per time point. (3) The mouse was fixed on a foam board. The skin on the chest was lifted with forceps, and the thoracic skin and ribs were cut open with scissors to expose the heart and liver. The auricle was then cut open. A syringe needle was inserted into the left ventricle of the mouse, and normal saline was perfused for approximately 1 min (10-20 mL) until the mouse's limbs, liver, and tongue turned pale. Brain collection: The skin on the head was cut open to expose the white skull. The cartilage was cut, the skull cap was carefully pried open to expose the white brain, and the entire brain was dissected out. Tissues such as the pancreas, liver, lung, and rectum were also collected. The samples were stored in a -80°C freezer for analysis. (4) The contents of Compound 4 and Compound 1 in peripheral blood and tissues were detected by LC/MS. MS/MS information
# [2] = Brain, po (50 mg/kg) Compound 4
# [3] = Liver, po (50 mg/kg) Compound 4
# [4] = Pancreas, iv (10mg/kg) Compound 4
# [5] = Pancreas, po (50 mg/kg) Compound 4
# [6] = Rectum, iv (10mg/kg) Compound 4
# [7] = Rectum, po (50 mg/kg) Compound 4
# [8] = 2 min, individual mice, 10 mg/kg
# [9] = 5min, individual mice, 10 mg/kg
# [10] = 15min, individual mice, 10 mg/kg
# [11] = 30min, individual mice, 10 mg/kg
compound,measurement,setting,value
CN(C)CC1C(=O)OC2C1CCC(CC(F)(F)F)=CCCC1(C)OC21 (centres unmarked) [Compound 4],IC50,H520,3.84 µM
same,AUC0-t,"[1]; Brain, iv (10mg/kg) Compound 4",791 ng·h/g
same,Fold (AUCtissue/AUCplasma ),"[1]; Brain, iv (10mg/kg) Compound 4",1.80
same,AUC0-t,[1]; [2],1477 ng·h/g
same,Fold (AUCtissue/AUCplasma ),[1]; [2],1.49
same,AUC0-t,"[1]; Liver, iv (10mg/kg) Compound 4",1568 ng·h/g
same,Fold (AUCtissue/AUCplasma ),"[1]; Liver, iv (10mg/kg) Compound 4",3.58
same,AUC0-t,[1]; [3],8430 ng·h/g
same,Fold (AUCtissue/AUCplasma ),[1]; [3],8.51
same,AUC0-t,"[1]; Lung, iv (10mg/kg) Compound 4",933 ng·h/g
same,Fold (AUCtissue/AUCplasma ),"[1]; Lung, iv (10mg/kg) Compound 4",2.13
same,AUC0-t,"[1]; Lung, po (50 mg/kg) Compound 4",3193 ng·h/g
same,Fold (AUCtissue/AUCplasma ),"[1]; Lung, po (50 mg/kg) Compound 4",3.22
same,AUC0-t,[1]; [4],2523 ng·h/g
same,Fold (AUCtissue/AUCplasma ),[1]; [4],5.76
same,AUC0-t,[1]; [5],5925 ng·h/g
same,Fold (AUCtissue/AUCplasma ),[1]; [5],5.98
same,AUC0-t,[1]; [6],2297 ng·h/g
same,Fold (AUCtissue/AUCplasma ),[1]; [6],5.24
same,AUC0-t,[1]; [7],7281 ng·h/g
same,Fold (AUCtissue/AUCplasma ),[1]; [7],7.35
same,Concentrations in Lung,"[1]; 2 min, Mean",2525 ng/g
same,Concentrations of Compound 4 in Brain Tissue,"[1]; 2 min, Mean",2020 ng/g
same,Concentrations of Compound 4 in Liver,"[1]; 2 min, Mean",3607 ng/g
same,Concentrations of Compound 4 in Pancreatic Tissue,"[1]; 2 min, Mean",6657 ng/g
same,Concentrations of Compound 4 in the Rectum,"[1]; 2 min, Mean",2883 ng/g
same,Concentrations of Compound 4 in Brain Tissue,[1]; [8],2150 ng/g and 1700 ng/g and 2210 ng/g
same,Concentrations of Compound 4 in Liver,[1]; [8],4470 ng/g and 3830 ng/g and 2520 ng/g
same,Concentrations of Compound 4 in Pancreatic Tissue,[1]; [8],6130 ng/g and 8060 ng/g and 5780 ng/g
same,Concentrations of Compound 4 in the Rectum,[1]; [8],3110 ng/g and 3090 ng/g and 2450 ng/g
same,Concentrations in Lung,"[1]; 5min, Mean",2374 ng/g
same,Concentrations of Compound 4 in Brain Tissue,"[1]; 5min, Mean",1135 ng/g
same,Concentrations of Compound 4 in Liver,"[1]; 5min, Mean",3493 ng/g
same,Concentrations of Compound 4 in Pancreatic Tissue,"[1]; 5min, Mean",4553 ng/g
same,Concentrations of Compound 4 in the Rectum,"[1]; 5min, Mean",4157 ng/g
same,Concentrations of Compound 4 in Liver,[1]; [9],3140 ng/g and 2940 ng/g and 4400 ng/g
same,Concentrations of Compound 4 in Pancreatic Tissue,[1]; [9],3920 ng/g and 3480 ng/g and 6260 ng/g
same,Concentrations of Compound 4 in the Rectum,[1]; [9],4450 ng/g and 4120 ng/g and 3900 ng/g
same,Concentrations in Lung,"[1]; 15min, Mean",841 ng/g
same,Concentrations of Compound 4 in Brain Tissue,"[1]; 15min, Mean",859 ng/g
same,Concentrations of Compound 4 in Liver,"[1]; 15min, Mean",1403 ng/g
same,Concentrations of Compound 4 in Pancreatic Tissue,"[1]; 15min, Mean",2130 ng/g
same,Concentrations of Compound 4 in the Rectum,"[1]; 15min, Mean",1780 ng/g
same,Concentrations in Lung,[1]; [10],564 ng/g and 1460 ng/g and 498 ng/g
same,Concentrations of Compound 4 in Liver,[1]; [10],1110 ng/g and 1470 ng/g and 1630 ng/g
same,Concentrations of Compound 4 in Pancreatic Tissue,[1]; [10],1730 ng/g and 2320 ng/g and 2340 ng/g
same,Concentrations of Compound 4 in the Rectum,[1]; [10],1660 ng/g and 2060 ng/g and 1620 ng/g
same,Concentrations in Lung,"[1]; 30min, Mean",488 ng/g
same,Concentrations of Compound 4 in Brain Tissue,"[1]; 30min, Mean",90.0 ng/g
same,Concentrations of Compound 4 in Liver,"[1]; 30min, Mean",789 ng/g
same,Concentrations of Compound 4 in Pancreatic Tissue,"[1]; 30min, Mean",1376 ng/g
same,Concentrations of Compound 4 in the Rectum,"[1]; 30min, Mean",1841 ng/g
same,Concentrations in Lung,[1]; [11],532 ng/g and 475 ng/g and 456 ng/g
same,Concentrations of Compound 4 in Brain Tissue,[1]; [11],81.1 ng/g and 65.8 ng/g and 123 ng/g
same,Concentrations of Compound 4 in Liver,[1]; [11],636 ng/g and 932 ng/g and 798 ng/g
same,Concentrations of Compound 4 in Pancreatic Tissue,[1]; [11],938 ng/g and 1440 ng/g and 1750 ng/g
same,Concentrations in Lung,"[1]; 1h, Mean",122 ng/g
same,Concentrations of Compound 4 in Brain Tissue,"[1]; 1h, Mean",253 ng/g
same,Concentrations of Compound 4 in Liver,"[1]; 1h, Mean",284 ng/g
